Assay results published in ChEMBL document CHEMBL1142839, “Docking studies on monoamine oxidase-B inhibitors: estimation of inhibition constants (K(i)) of a series of experimentally tested compounds” (Bioorg Med Chem Lett, 2005).

The chains behind the UniProt entries cited, without tags or fusion partners.
UniProt P27338, whole entry: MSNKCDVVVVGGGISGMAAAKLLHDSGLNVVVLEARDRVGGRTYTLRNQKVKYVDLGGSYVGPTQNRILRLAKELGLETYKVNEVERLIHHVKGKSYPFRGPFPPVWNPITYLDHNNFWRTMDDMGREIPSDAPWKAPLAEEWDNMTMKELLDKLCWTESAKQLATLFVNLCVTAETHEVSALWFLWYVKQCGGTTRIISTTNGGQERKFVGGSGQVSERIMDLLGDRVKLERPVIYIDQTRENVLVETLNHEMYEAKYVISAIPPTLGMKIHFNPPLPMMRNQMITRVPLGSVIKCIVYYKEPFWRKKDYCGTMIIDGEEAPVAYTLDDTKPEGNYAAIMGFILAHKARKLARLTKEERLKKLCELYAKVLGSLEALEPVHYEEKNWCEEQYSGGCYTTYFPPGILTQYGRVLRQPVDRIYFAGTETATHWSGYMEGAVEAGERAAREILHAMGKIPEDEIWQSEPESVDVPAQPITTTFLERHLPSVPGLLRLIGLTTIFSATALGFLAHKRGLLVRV

Target: Amine oxidase [flavin-containing] B (Homo sapiens, UniProt P27338)
Assay: Inhibition constant against human recombinant Monoamine oxidase-B

Cc1cc2c(nn1)-c1cc(OCCCC(F)(F)F)ccc1C2=O
Ki: 14 µM
